Experimental data taken from US9023767B2, “γ-Secretase substrates and methods of use” (Memorial Sloan-Kettering Cancer Center, priority 2009, dated 2015).

Legend:
γ-secretase [1] = target: T1, γ-secretase (Homo sapiens (Human), UniProt P49768+Q92542); assay: In vitro γ-secretase assay, HeLa membrane, APP-derived substrates, ECL detection; format: biochemical; settings: for effect on γ-secretase processing of the S3 substrate (in trans): peptide 0.1, 1 and 10 μM, S3 0.5, 1 and 2 μM; for IC50: Aβ40 production, HeLa membrane, 0.25% CHAPSO, read-out: IC50, γ-secretase activity on APP substrate
Method: The recombinant proteins were incubated with γ-secretase (40 μg/ml) in the presence or absence of 1 μM γ-secretase inhibitor L-685,458 (CAS [292632-98-5], shown below). The reaction mixture contains 0.25% 3[(3-cholamidopropyl) dimethylammonio]-2-hydroxypropanesulfonic acid (CHAPSO), 0.1 μg/μl BSA, protease inhibitor, 50 mM PIPES, pH 7.0, 5 mM MgCl2, 5 mM CaCl2 and 150 mM KCl. The reaction was incubated for 2.5 hr at 37° C. and stopped by adding RIPA buffer (150 mM NaCl, 1.0% NP-40, 0.5% sodium
[drawing 1] deoxycholate, 0.1% SDS, 50 mM Tris HCl, pH 8.0). The products were detected with various antibody combinations as previously described (Lai et al., 2003; J. Biol. Chem., 278: 22475-22481; Li et al., 2000, Proc. Natl. Acad. Sci. USA, 97: 6138-6143; Yin et al., 2007, J. Biol. Chem., 282:23639-23644) using electrochemiluminescence (ECL). The amount of product was determined using synthetic peptide or recombinant standards. The Km and Vmax were determined from the Michaelis-Menten equation Michaelis-Menten Kinetics (ν=Vm[S]/([…]; ν: initial rate; Vm: maximum velocity; Km: the Michaelis-Menten constant, S: substrate). P-values were calculated from Student t-test. 7.1.5 Cell-Based Aβ Production Assay and Western Blot

γ-secretase [2] = target: T1, γ-secretase; assay: In vitro γ-secretase cleavage of Notch1 peptide substrate, HeLa membrane, Val1744 antibody; format: biochemical; settings: read-out: IC50, Notch substrate processing
Method: FIG. 4. […] Various concentrations of inhibitor were incubated with APP substrate (S4) or Notch peptide substrate containing the C-terminal biotinylated transmembrane domain of Notch1 and HeLa cell membrane in the presence of 0.25% CHAPSO. Aβ40 was detected by G2-10 antibody. […] Activities are expressed as percentage relative to reading that was produced in DMSO control. […] Various concentrations of S4 substrate were incubated with HeLa membrane in fixed concentrations of inhibitor as indicated. The double reciprocal velocity (1/v) and substrate concentrations (1/S) are plotted to determine the type of inhibition. […] Assays were conducted as described in FIG. 4A. […] The labeled samples were solubilized with RIPA buffer. Biotinylated proteins were captured with streptavidin-agarose and probed by immunoblotting using antibodies against biotin, PS1-CTF, PS1-NTF, Nicastrin, PEN-2 and APH-1a. HeLa cell membrane proteins were directly loaded onto lanes indicated by an arrow in the PEN-2 and APH-1a blots as positive controls. […] Upper panel: PS1-NTF; Lower panel: PS1-CTF. […] Rev.

inhibition of γ-secretase activity, APP processing (γ-secretase [1])	effect on γ-secretase processing of the S3 substrate (in trans) (γ-secretase [1])	IC50 (γ-secretase [1])	IC50 (γ-secretase [2])	Compound
no inhibition	no difference			Aβ1-16: Aβ1-16 derived synthetic peptide (DAEFRHDSGYEVHHQK; Amyloid-beta protein 42; UniProt P05067 672-687, looked up, fragment)
		1500 nM	10 µM	CC(C)C[C@H](N)C(=O)N[C@H](C(=O)N[C@@H](Cc1ccccc1)C(=O)N[C@@H](Cc1ccccc1)C(=O)N[C@@H](C)C(=O)N[C@@H](CCC(=O)O)C(=O)N[C@@H](CC(=O)O)C(=O)O)C(C)C [Aβ17-23, LVFFAED]
		280 nM		CC(C)C[C@H](N)C(=O)N[C@H](C(=O)N[C@@H](Cc1ccccc1)C(=O)N[C@@H](Cc1ccccc1)C(=O)N[C@@H](C)C(=O)O)C(C)C [Aβ17-21, LVFFA]
		81 nM		CC(C)C[C@H](N)C(=O)N[C@H](C(=O)N[C@@H](Cc1ccc(C(=O)c2ccccc2)cc1)C(=O)N[C@@H](Cc1ccccc1)C(=O)N[C@@H](C)C(=O)N[C@@H](CCC(=O)O)C(=O)N[C@@H](CC(=O)O)C(=O)O)C(C)C [Aβ17-23BPA^19]
		940 nM		CC(C)C[C@H](N)C(=O)N[C@H](C(=O)N[C@@H](Cc1ccccc1)C(=O)N[C@@H](Cc1ccccc1)C(=O)O)C(C)C [Aβ17-20, LVFF]
no inhibition	no difference			Aβ1-12: Aβ1-16 derived synthetic peptide (DAEFRHDSGYEV; Amyloid-beta protein 42; UniProt P05067 672-683, looked up, fragment)
